{"sequences": {"note": "By UniProt entry, the sequences of proteins in these tests, tags left out.", "UniProt P16581, whole entry": "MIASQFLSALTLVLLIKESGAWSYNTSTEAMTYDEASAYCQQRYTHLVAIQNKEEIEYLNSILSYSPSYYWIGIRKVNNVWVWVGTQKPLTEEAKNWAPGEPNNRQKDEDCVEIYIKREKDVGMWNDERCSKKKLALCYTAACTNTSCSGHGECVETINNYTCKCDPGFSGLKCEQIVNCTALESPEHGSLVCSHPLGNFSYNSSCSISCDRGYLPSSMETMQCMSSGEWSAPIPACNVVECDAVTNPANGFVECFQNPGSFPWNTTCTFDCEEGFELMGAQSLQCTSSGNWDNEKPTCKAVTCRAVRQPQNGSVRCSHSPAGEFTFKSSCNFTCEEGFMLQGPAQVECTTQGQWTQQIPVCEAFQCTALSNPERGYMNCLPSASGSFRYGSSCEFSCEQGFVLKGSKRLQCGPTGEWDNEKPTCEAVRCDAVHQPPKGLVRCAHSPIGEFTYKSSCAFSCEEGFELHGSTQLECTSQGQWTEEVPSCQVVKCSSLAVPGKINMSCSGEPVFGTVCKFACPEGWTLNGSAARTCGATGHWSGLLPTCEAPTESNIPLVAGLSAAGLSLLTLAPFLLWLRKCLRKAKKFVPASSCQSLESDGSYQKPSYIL", "UniProt P01375, whole entry": "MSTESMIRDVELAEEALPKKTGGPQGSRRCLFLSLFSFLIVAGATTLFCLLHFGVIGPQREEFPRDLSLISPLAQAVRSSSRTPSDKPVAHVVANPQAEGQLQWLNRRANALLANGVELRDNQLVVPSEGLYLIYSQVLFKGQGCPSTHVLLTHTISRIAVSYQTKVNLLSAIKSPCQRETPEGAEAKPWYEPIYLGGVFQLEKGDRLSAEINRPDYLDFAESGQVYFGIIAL"}, "source": "PubChem BioAssay (EPA / NIEHS)", "key": {"[1]": {"read-out": "TIMP metallopeptidase inhibitor 2 (TIMP2), TIMP2 (gene 7077)", "assay": "BSK_KF3CT_TIMP2: BioMAP Diversity Plus: KF3CT Assay for TIMP metallopeptidase inhibitor 2 (TIMP2) Biomarker Activity (AID 2283071)", "details": "actives raise or lower the signal; primary human keratinocytes with fibroblasts", "method_in_brief": "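ELISA readout of TIMP-2 in keratinocyte plus foreskin fibroblast co-cultures (human skin primary cells), 24 h post-dose. Gain or loss of signal fitted relative to DMSO.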"}, "[2]": {"read-out": "Transforming growth factor beta 1 (TGFb1), TGFB1 (gene 7040)", "assay": "BSK_KF3CT_TGFb1: BioMAP Diversity Plus: KF3CT Assay for Transforming growth factor beta 1 (TGFb1) Biomarker Activity (AID 2283072)", "details": "actives raise or lower the signal; primary human keratinocytes with fibroblasts", "method_in_brief": "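Read-out: ELISA for TGF-b1 in keratinocyte/foreskin fibroblast human skin co-culture, 24 h after dosing; bidirectional curve fit vs DMSO baseline; gain or loss of signal scored.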"}, "[3]": {"read-out": "C-C motif chemokine 2 (Homo sapiens) (UniProt P13500)", "assay": "BSK_KF3CT_MCP1: BioMAP Diversity Plus: KF3CT Assay for Monocyte Chemoattractant Protein 1 (MCP1/CCL2) Biomarker Activity (AID 2283073)", "details": "actives raise or lower the signal; primary human keratinocytes with fibroblasts", "method_in_brief": "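Biomarker MCP-1 is measured by ELISA in primary human keratinocytes co-cultured with foreskin fibroblasts, 24 h after chemical treatment; DMSO serves as the negative control and activity baseline.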"}, "[4]": {"read-out": "Matrix Metallopeptidase 9 (MMP9), MMP9 (gene 4318)", "assay": "BSK_KF3CT_MMP9: BioMAP Diversity Plus: KF3CT Assay for Matrix Metallopeptidase 9 (MMP9) Biomarker Activity (AID 2283074)", "details": "actives raise or lower the signal; primary human keratinocytes with fibroblasts", "method_in_brief": "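ELISA read-out of MMP-9 at 24 h post-dosing in a co-culture of human skin keratinocytes and foreskin fibroblasts. Gain or loss of signal was fitted in both directions against DMSO.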"}, "[5]": {"read-out": "urokinase plasminogen activator (uPA), PLAU (gene 5328)", "assay": "BSK_KF3CT_uPA: BioMAP Diversity Plus: KF3CT Assay for urokinase plasminogen activator (uPA) Biomarker Activity (AID 2283075)", "details": "actives raise or lower the signal; primary human keratinocytes with fibroblasts", "method_in_brief": "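Skin co-culture (keratinocytes + foreskin fibroblasts), human primary; 24 h post-dose; uPA by ELISA; gain/loss fit vs DMSO baseline.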"}, "CD40, CD40 (gene 958) [6]": {"read-out": "CD40, CD40 (gene 958)", "assay": "BSK_LPS_CD40: BioMAP Diversity Plus: LPS Assay for CD40 Biomarker Activity (AID 2283076)", "details": "actives raise or lower the signal; primary human HUVEC with PBMC", "method_in_brief": "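Using a multiplexed primary human co-culture (umbilical vein endothelium plus PBMC), CD40 was read by ELISA 24 h after dosing, with cytotoxicity tracked by sulforhodamine B staining of parallel cultures and activity fitted bidirectionally versus DMSO.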"}, "[7]": {"read-out": "E-selectin (Homo sapiens) (UniProt P16581)", "assay": "BSK_LPS_Eselectin: BioMAP Diversity Plus: LPS Assay for Eselectin Biomarker Activity (AID 2283077)", "details": "actives raise or lower the signal; primary human HUVEC with PBMC", "method_in_brief": "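Dose chemical onto LPS-driven HUVEC/PBMC co-culture; after 24 h, run ELISA for E-selectin; fit up- and down-going responses relative to DMSO control.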"}, "[8]": {"read-out": "Interleukin-8 (IL8), CXCL8 (gene 3576)", "assay": "BSK_LPS_IL8: BioMAP Diversity Plus: LPS Assay for Interleukin-8 (IL8) Biomarker Activity (AID 2283078)", "details": "actives raise or lower the signal; primary human HUVEC with PBMC", "method_in_brief": "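In this LPS system, chemical-treated human umbilical vein endothelium/PBMC co-cultures were harvested at 24 h for IL-8 ELISA.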"}, "[9]": {"assay": "BSK_LPS_SRB: Viability Assessment in the BioMAP Diversity Plus: LPS Assay (AID 2283079);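 note: measured one day after compound addition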", "details": "primary human HUVEC with PBMC", "method_in_brief": "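Cytotoxicity endpoint in human endothelial–PBMC co-culture: 24 h exposure, then SRB (0.1%) staining, 560 nm read.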"}, "[10]": {"read-out": "Interleukin-1 alpha (IL1a), IL1A (gene 3552)", "assay": "BSK_LPS_IL1a: BioMAP Diversity Plus: LPS Assay for Interleukin-1 alpha (IL1a) Biomarker Activity (AID 2283080)", "details": "actives raise or lower the signal; primary human HUVEC with PBMC", "method_in_brief": "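Primary human HUVEC and PBMC co-culture stimulated with LPS is dosed and harvested at 24 h. Both increases and decreases in ELISA-measured IL-1a are scored relative to DMSO.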"}, "[11]": {"read-out": "Monocyte Chemoattractant Protein-1 (MCP1), CCL2 (gene 6347)", "assay": "BSK_LPS_MCP1: BioMAP Diversity Plus: LPS Assay for Monocyte Chemoattractant Protein-1 (MCP1) Biomarker Activity (AID 2283081)", "details": "actives raise or lower the signal; primary human HUVEC with PBMC", "method_in_brief": "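Values derive from bidirectional fitting against DMSO of ELISA-measured MCP-1 in a human primary endothelial and mononuclear cell co-culture, 24 h after chemical addition under LPS activation.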"}, "[12]": {"assay": "BSK_LPS_PGE2: BioMAP Diversity Plus: LPS Assay for Prostaglandin E2 (PGE2) Biomarker Activity (AID 2283082)", "details": "actives raise or lower the signal; primary human HUVEC with PBMC", "method_in_brief": "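ELISA read-out of PGE2 from human umbilical vein endothelial cells co-cultured with peripheral blood mononuclear cells under LPS, 24 h post-dose. Gain or loss of signal scored relative to DMSO baseline.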"}, "[13]": {"read-out": "Macrophage colony-stimulating factor (MCSF), CSF1 (gene 1435)", "assay": "BSK_LPS_MCSF: BioMAP Diversity Plus: LPS Assay for Macrophage colony-stimulating factor (MCSF) Biomarker Activity (AID 2283083)", "details": "actives raise or lower the signal; primary human HUVEC with PBMC", "method_in_brief": "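Bidirectional fit versus DMSO of ELISA-measured M-CSF in co-cultured human umbilical vein endothelial cells and PBMC, sampled 24 h after dosing.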"}, "[14]": {"read-out": "Tissue Factor, F3 (gene 2152)", "assay": "BSK_LPS_TissueFactor: BioMAP Diversity Plus: LPS Assay for Tissue Factor Biomarker Activity (AID 2283084)", "details": "actives raise or lower the signal; primary human HUVEC with PBMC", "method_in_brief": "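Read-out: CD142 ELISA, 24 h. System: LPS-driven human endothelial/PBMC co-culture. Analysis: up- or down-signal fitted against DMSO.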"}, "[15]": {"read-out": "Tumor necrosis factor (Homo sapiens) (UniProt P01375)", "assay": "BSK_LPS_TNFa: BioMAP Diversity Plus: LPS Assay for Tumour Necrosis Factor alpha (TNFa) Biomarker Activity (AID 2283085);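 for AC50: TNFa protein level quantified by ELISA in the co-culture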", "details": "actives raise or lower the signal; primary human HUVEC with PBMC", "method_in_brief": "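HUVEC/PBMC co-culture, LPS-stimulated; 24 h post-dose; TNFa by ELISA; gain or loss of signal fitted bidirectionally vs DMSO baseline.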"}, "[16]": {"read-out": "Vascular cell adhesion molecule 1 (VCAM1), VCAM1 (gene 7412)", "assay": "BSK_LPS_VCAM1: BioMAP Diversity Plus: LPS Assay for Vascular cell adhesion molecule 1 (VCAM1) Biomarker Activity (AID 2283086)", "details": "actives raise or lower the signal; primary human HUVEC with PBMC", "method_in_brief": "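ELISA read-out of VCAM-1 at 24 h post-dosing in an LPS-driven HUVEC/PBMC primary human co-culture; gain or loss of signal fitted bidirectionally against DMSO baseline. Cytotoxicity tracked in parallel cultures by SRB total-protein staining.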"}, "CD38, CD38 (gene 952)": {"read-out": "CD38, CD38 (gene 952)", "assay": "BSK_SAg_CD38: BioMAP Diversity Plus: SAg Assay for CD38 Biomarker Activity (AID 2283087)", "details": "actives raise or lower the signal; primary human HUVEC with PBMC", "method_in_brief": "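Measures CD38 on a human endothelial/PBMC co-culture driven by SEB and TSST-1, 24 h after compound exposure, using ELISA with fluorescence detection; DMSO defines baseline for bidirectional curve fitting.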"}, "CD40, CD40 (gene 958) [17]": {"read-out": "CD40, CD40 (gene 958)", "assay": "BSK_SAg_CD40: BioMAP Diversity Plus: SAg Assay for CD40 Biomarker Activity (AID 2283088)", "details": "actives raise or lower the signal; primary human HUVEC with PBMC", "method_in_brief": "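Endpoint derived by fitting increases or decreases versus DMSO controls. CD40 is detected by fluorescence ELISA in a human vascular co-culture of endothelium and PBMC at 24 h.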"}, "CD69, CD69 (gene 969)": {"read-out": "CD69, CD69 (gene 969)", "assay": "BSK_SAg_CD69: BioMAP Diversity Plus: SAg Assay for CD69 Biomarker Activity (AID 2283089);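 for AC50: cell surface CD69 protein quantified by ELISA with fluorescence detection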", "details": "actives raise or lower the signal; primary human HUVEC with PBMC", "method_in_brief": "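Values derive from bidirectional fitting relative to DMSO vehicle. Cells: umbilical vein endothelium plus peripheral blood mononuclear cells, treated 24 h before fluorescent ELISA for CD69.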"}, "[18]": {"read-out": "Monocyte Chemoattractant Protein-1 (MCP1), CCL2 (gene 6347)", "assay": "BSK_SAg_MCP1: BioMAP Diversity Plus: SAg Assay for Monocyte Chemoattractant Protein-1 (MCP1) Biomarker Activity (AID 2283090)", "details": "actives raise or lower the signal; primary human HUVEC with PBMC", "method_in_brief": "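Values derive from bidirectional fitting of ELISA-measured MCP1 against DMSO controls. Readings were taken 24 h after dosing human vascular endothelial cells co-cultured with peripheral blood mononuclear cells under superantigen stimulation.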"}}, "note": "The entries are a selection whose mix differs from that of the whole data set. The source made the active and inactive calls. Rule for the calls: active = hit-call score of the fitted dose curve at least 0.9, where 1 is the maximum; inactive = score below 0.9.", "data": [{"smiles": "CC(C)OP(OC(C)C)OC(C)C", "values": [{"measurement": "outcome", "setting": "[1]", "result": "inactive"}, {"measurement": "outcome", "setting": "[2]", "result": "inactive"}, {"measurement": "outcome", "setting": "[3]", "result": "inactive"}, {"measurement": "outcome", "setting": "[4]", "result": "inactive"}, {"measurement": "outcome", "setting": "[5]", "result": "inactive"}, {"measurement": "outcome", "setting": "CD40, CD40 (gene 958) [6]", "result": "inactive"}, {"measurement": "outcome", "setting": "[7]", "result": "inactive"}, {"measurement": "outcome", "setting": "[8]", "result": "inactive"}, {"measurement": "outcome", "setting": "[9]", "result": "inactive"}, {"measurement": "AC50", "setting": "[10]", "result": "active: 1.61 µM"}, {"measurement": "outcome", "setting": "[11]", "result": "inactive"}, {"measurement": "outcome", "setting": "[12]", "result": "inactive"}, {"measurement": "outcome", "setting": "[13]", "result": "inactive"}, {"measurement": "outcome", "setting": "[14]", "result": "inactive"}, {"measurement": "outcome", "setting": "[15]", "result": "inactive"}, {"measurement": "outcome", "setting": "[16]", "result": "inactive"}, {"measurement": "outcome", "setting": "CD38, CD38 (gene 952)", "result": "inactive"}, {"measurement": "outcome", "setting": "CD40, CD40 (gene 958) [17]", "result": "inactive"}, {"measurement": "outcome", "setting": "CD69, CD69 (gene 969)", "result": "inactive"}, {"measurement": "outcome", "setting": "[18]", "result": "inactive"}]}, {"smiles": "O=[N+]([O-])c1ccccc1[N+](=O)[O-]", "values": [{"measurement": "outcome", "setting": "[1]", "result": "inactive"}, {"measurement": "outcome", "setting": "[2]", "result": "inactive"}, {"measurement": "outcome", "setting": "[3]", "result": "inactive"}, {"measurement": "outcome", "setting": "[4]", "result": "inactive"}, {"measurement": "outcome", "setting": "[5]", "result": "inactive"}, {"measurement": "outcome", "setting": "CD40, CD40 (gene 958) [6]", "result": "inactive"}, {"measurement": "outcome", "setting": "[7]", "result": "inactive"}, {"measurement": "outcome", "setting": "[8]", "result": "inactive"}, {"measurement": "outcome", "setting": "[9]", "result": "inactive"}, {"measurement": "AC50", "setting": "[10]", "result": "active: 24.8 µM"}, {"measurement": "outcome", "setting": "[11]", "result": "inactive"}, {"measurement": "AC50", "setting": "[12]", "result": "active: 2.47 µM"}, {"measurement": "outcome", "setting": "[13]", "result": "inactive"}, {"measurement": "AC50", "setting": "[14]", "result": "active: 7.11 µM"}, {"measurement": "AC50", "setting": "[15]", "result": "active: 0.272 µM"}, {"measurement": "AC50", "setting": "[16]", "result": "active: 15.8 µM"}, {"measurement": "outcome", "setting": "CD38, CD38 (gene 952)", "result": "inactive"}, {"measurement": "outcome", "setting": "CD40, CD40 (gene 958) [17]", "result": "inactive"}, {"measurement": "AC50", "setting": "CD69, CD69 (gene 969)", "result": "active: 20 µM"}, {"measurement": "outcome", "setting": "[18]", "result": "inactive"}]}]}
